Values of other authors, collected in patent publication EP1140135B1, “C[…]” (ratiopharm GmbH, priority 1998, dated 2003).

Conditions: in water, stated as known

Cyclosporin A
Löslichkeit in Wasser: sehr schlecht löslich
